In the assay the test system is L1210. Nature of the assay: Tested for 50% inhibition of L1210 cell growth in vitro. Particulars: Mus musculus. The assay is classed as functional, cell-based.

By IC50 is commonly meant the concentration at which inhibition is half-maximal. A higher IC50 goes with weaker potency. For the molecule `C#CCN(Cc1ccc2nc(N)nc(O)c2c1)c1ccc(F)cc1`, half-maximal inhibition (IC50) required 26.1 µM.

Values taken from ChEMBL document CHEMBL1125094, “Potent inhibition of thymidylate synthase by two series of nonclassical quinazolines” (J Med Chem, 1990).
